Test results as given in PubChem BioAssay AID624325 (Sanford-Burnham Center for Chemical Genomics, 2012).
Only a part is listed here, and it is no random draw. The source made the active and inactive calls.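 The calls were made as follows: active = compounds inhibiting the enzyme by at least 50% at 15 µM in any one of the replicates; inactive = the rest.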

Chains of the proteins cited; added tags and fusions are not shown.
UniProt P49327, whole entry: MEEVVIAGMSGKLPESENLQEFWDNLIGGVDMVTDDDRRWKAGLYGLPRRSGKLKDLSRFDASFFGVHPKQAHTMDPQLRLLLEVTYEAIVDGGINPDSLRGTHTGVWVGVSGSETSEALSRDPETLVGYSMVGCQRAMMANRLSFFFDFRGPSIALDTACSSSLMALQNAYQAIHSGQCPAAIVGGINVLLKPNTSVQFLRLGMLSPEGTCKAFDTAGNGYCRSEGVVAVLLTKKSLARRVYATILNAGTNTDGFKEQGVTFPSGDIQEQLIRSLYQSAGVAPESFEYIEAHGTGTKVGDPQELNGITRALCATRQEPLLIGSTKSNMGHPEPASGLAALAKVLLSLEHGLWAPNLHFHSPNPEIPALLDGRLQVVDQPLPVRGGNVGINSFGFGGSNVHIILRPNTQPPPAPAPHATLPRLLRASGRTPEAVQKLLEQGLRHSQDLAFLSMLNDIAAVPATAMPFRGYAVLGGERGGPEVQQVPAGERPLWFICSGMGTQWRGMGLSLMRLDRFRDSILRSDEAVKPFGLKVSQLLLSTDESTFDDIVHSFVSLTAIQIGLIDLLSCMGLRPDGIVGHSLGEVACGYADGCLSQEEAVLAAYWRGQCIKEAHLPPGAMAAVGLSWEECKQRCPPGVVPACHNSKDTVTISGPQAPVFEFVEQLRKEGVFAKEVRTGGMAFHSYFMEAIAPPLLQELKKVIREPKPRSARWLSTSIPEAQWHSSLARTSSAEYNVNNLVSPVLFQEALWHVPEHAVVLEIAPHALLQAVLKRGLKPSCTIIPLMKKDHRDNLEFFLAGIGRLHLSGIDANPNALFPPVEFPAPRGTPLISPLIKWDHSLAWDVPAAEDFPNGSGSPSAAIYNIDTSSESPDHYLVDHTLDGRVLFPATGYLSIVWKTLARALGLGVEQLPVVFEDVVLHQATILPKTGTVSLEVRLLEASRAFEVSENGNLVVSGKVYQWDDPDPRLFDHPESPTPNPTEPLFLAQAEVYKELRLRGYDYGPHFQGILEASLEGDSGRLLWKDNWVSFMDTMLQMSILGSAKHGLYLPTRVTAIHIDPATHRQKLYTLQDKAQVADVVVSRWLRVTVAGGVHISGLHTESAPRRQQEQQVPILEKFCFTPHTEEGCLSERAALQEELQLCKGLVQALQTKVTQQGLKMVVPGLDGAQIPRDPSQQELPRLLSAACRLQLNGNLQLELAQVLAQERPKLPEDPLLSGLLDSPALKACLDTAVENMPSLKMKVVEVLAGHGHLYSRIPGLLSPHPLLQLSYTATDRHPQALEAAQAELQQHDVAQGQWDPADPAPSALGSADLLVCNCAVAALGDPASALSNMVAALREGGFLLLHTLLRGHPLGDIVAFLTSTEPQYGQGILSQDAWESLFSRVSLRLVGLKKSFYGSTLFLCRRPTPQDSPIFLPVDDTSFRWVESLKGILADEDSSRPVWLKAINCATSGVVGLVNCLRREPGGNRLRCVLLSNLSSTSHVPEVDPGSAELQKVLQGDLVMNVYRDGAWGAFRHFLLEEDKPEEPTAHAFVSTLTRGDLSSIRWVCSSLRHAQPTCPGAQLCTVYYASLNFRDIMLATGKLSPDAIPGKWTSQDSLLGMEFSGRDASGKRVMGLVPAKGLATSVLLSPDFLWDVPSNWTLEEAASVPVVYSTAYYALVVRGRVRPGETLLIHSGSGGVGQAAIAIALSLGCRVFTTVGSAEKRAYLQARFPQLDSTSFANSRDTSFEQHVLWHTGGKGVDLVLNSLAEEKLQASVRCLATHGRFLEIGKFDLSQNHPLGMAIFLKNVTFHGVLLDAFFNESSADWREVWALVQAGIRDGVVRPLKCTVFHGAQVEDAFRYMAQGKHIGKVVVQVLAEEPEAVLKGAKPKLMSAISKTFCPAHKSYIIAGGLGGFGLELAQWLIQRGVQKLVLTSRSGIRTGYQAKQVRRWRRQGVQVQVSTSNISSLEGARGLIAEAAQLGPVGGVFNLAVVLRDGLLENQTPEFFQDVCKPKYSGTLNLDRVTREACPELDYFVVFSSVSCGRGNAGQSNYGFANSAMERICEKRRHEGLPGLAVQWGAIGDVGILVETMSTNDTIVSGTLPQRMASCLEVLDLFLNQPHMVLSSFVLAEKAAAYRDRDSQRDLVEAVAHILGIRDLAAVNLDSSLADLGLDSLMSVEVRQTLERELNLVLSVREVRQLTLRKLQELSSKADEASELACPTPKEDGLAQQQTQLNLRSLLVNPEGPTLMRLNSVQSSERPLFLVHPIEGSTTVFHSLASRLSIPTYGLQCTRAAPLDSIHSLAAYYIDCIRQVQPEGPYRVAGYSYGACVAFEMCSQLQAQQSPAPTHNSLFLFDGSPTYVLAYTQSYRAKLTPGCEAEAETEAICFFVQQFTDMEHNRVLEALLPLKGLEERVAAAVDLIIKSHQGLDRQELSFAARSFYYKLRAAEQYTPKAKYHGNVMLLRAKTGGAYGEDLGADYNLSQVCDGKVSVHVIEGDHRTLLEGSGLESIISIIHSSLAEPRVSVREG

These compounds were tested against Fatty acid synthase (Homo sapiens) (UniProt P49327) (assay: FAS thioesterase domain inhibitors, confirmation, biochemical, fluorescence intensity, single concentration (AID 624325;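 also: 0% = enzyme with DMSO only and 100% = wells lacking enzyme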)). Conditions: recombinant FAS-TE, OMFH fluorogenic substrate, at 15 µM, stronger effect = higher value.

SMILES | inhibition
O=c1[nH]c2ccccc2n1C1CCN(C(c2cc3ccccc3o2)c2nnnn2C2CCCCC2)CC1 (stereo not given) | inactive: 27.2%
O=c1[nH]c2ccccc2n1C1CCN(C(c2cccc3ccccc23)c2nnnn2C2CCCC2)CC1 (stereo not given) | inactive: 28.4%
CCCCn1nnnc1C(c1cccc2ccccc12)N1CCC(n2c(=O)[nH]c3ccccc32)CC1 (stereo not given) | inactive: 28.7%
CC(C)(C)n1nnnc1C(c1cccc2ccccc12)N1CCC(n2c(=O)[nH]c3ccccc32)CC1 (stereo not given) | inactive: -2.37%
O=c1[nH]c2ccccc2n1C1CCN(C(c2cc3ccccc3o2)c2nnnn2C2CCCC2)CC1 (stereo not given) | inactive: 17.6%
